Binding of CDR-mutated scFvs to a peptide of the spike HR2 region

From the AlphaSeq antibody data of Engelhart et al. 2022 (doi:10.1038/s41597-022-01779-4), copy in the FLAb collection.

Target: peptide PDVDLGDISGINAS, taken from heptad repeat 2 (HR2) of SARS-CoV-2 spike.

Each scFv is VH, the linker GGGGSGGGGSGGGGS, VL, as in the parent Ab-14, and differs from it in the CDRs of the heavy chain only.
VH: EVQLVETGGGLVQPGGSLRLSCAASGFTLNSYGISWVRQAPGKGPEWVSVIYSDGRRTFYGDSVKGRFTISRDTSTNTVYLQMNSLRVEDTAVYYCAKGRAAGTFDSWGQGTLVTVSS
VL: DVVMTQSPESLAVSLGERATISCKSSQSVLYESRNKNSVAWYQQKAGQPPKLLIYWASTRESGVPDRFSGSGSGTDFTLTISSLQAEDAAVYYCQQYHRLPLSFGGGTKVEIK

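Phage display of a naive human antibody library on the peptide gave the parent. In library AAYL49, one, two or three CDR residues were substituted; doubles and triples were drawn at random. In AlphaSeq, yeast of one mating type display the scFv and yeast of the other type display the target. Mating (16 h, 30 °C) was followed by selection of diploids and sequencing of their barcodes. A regression on co-assayed BCL2-family reference pairs converts the normalised counts of each replicate to an apparent Kd. Each pool was mated in three replicate cultures.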

Each variant's VH is given in full. This list gathers variants with a substitution at S63 (VH, numbered from residue 1). Affinities are written as log10 Kd with Kd in nM; a lower number is a better binder. A mean of the replicates is given; it leaves out those without a signal. A pair that was not seen in any replicate is written "not detected"; this usually means weak binding, but a binder can also be missed.

VH,"mean, log10 nM",seen in
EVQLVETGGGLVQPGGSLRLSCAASGFTLNSYGISWVRQAPGKGPEWVSVIYSDQRRTFYGDFVFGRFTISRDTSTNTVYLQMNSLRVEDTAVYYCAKGRAAGTFDSWGQGTLVTVSS,not detected,0 of 3
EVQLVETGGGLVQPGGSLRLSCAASGFTLNSYGISWVRQAPGKGPEWVSVIFIDGRRTFYGDPVKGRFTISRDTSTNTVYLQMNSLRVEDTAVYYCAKGRAAGTFDSWGQGTLVTVSS,not detected,0 of 3
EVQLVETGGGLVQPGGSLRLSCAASGFTLNSYGISWVRQAPGKGPEWVSVIYSDGRRTFMGDDHKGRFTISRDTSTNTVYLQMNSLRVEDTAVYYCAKGRAAGTFDSWGQGTLVTVSS,3.32,2 of 3
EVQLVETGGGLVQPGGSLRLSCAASGFTLNSYGISWVRQAPGKGPEWVSVIYSDGRRCFYGDEVKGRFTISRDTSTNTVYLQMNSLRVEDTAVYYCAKGRTAGTFDSWGQGTLVTVSS,1.15,3 of 3
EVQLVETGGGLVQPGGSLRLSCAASGFTRNSYGISWVRQAPGKGPEWVSVIYSDGRRTFYLDTVKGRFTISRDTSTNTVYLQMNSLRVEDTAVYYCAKGRAAGTFDSWGQGTLVTVSS,3.21,1 of 3
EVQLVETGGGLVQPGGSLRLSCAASGFTLNSYGISWVRQAPGKGPEWVSVIYSDGRRTCYGDWVVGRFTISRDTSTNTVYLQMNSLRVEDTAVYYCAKGRAAGTFDSWGQGTLVTVSS,3.97,2 of 3
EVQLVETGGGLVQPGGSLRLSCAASGFTLNSYVISWVRQAPGKGPEWVSVIYSDGRRTFYHDWVKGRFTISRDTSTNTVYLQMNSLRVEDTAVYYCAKGRAAGTFDSWGQGTLVTVSS,4.38,2 of 3
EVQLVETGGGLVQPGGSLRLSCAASGFTLMSYGISWVRQAPGKGPEWVSVIYSDGRRTFYHDRVKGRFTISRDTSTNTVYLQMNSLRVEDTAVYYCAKGRAAGTFDSWGQGTLVTVSS,1.16,3 of 3
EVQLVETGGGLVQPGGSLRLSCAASGFTLNTYGISWVRQAPGKGPEWVSVIYSDGRRTFYGDVVKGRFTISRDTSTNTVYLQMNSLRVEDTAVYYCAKGRKAGTFDSWGQGTLVTVSS,not detected,0 of 3
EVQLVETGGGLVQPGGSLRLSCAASGFTLNSYGISWVRQAPGKGPEWVSVIYSDGWRTFYGDLVKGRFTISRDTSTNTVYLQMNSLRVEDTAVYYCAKGPAAGTFDSWGQGTLVTVSS,not detected,0 of 3
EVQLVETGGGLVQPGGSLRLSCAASGFTLNSYIISWVRQAPGKGPEWVSVIYSDGRRTFYGDIVKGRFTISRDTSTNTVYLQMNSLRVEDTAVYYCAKGRKAGTFDSWGQGTLVTVSS,not detected,0 of 3
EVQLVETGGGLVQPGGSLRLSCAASGFTLNSYGISWVRQAPGKGPEWVSDIHSDGRRTFYGDTVKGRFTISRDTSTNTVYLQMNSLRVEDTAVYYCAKGRAAGTFDSWGQGTLVTVSS,not detected,0 of 3
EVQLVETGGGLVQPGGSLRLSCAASGFTLNSKGISWVRQAPGKGPEWVSQIYSDGRRTFYGDWVKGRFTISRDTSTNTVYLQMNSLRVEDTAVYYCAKGRAAGTFDSWGQGTLVTVSS,not detected,0 of 3
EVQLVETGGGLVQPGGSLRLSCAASFFTLNSYGISWVRQAPGKGPEWVSVIYSDGRQTFYGDWVKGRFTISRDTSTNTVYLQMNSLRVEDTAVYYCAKGRAAGTFDSWGQGTLVTVSS,not detected,0 of 3
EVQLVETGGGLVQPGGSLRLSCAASGFTLNSYGNSWVRQAPGKGPEWVSVIYSDGRRTFYGDMVKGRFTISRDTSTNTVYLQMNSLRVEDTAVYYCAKGRAPGTFDSWGQGTLVTVSS,3.45,2 of 3

Extract of 2 entries:

{"VH": "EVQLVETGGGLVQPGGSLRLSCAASGFTLNTYGISWVRQAPGKGPEWVSVIYSDGRRTFYGDVVKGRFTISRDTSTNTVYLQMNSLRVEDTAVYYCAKGRKAGTFDSWGQGTLVTVSS", "mean, log10 nM": "not detected", "seen in": "0 of 3"}
{"VH": "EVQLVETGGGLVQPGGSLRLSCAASGFTLNSYGISWVRQAPGKGPEWVSVIYSDGRRCFYGDEVKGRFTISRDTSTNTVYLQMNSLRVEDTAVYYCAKGRTAGTFDSWGQGTLVTVSS", "mean, log10 nM": "1.15", "seen in": "3 of 3"}

Three control strains display no target. For library AAYL49, 15% of the pairings with them gave a signal, with a median of 4.06 and one signal in twenty below 2.83, so weak values seen in few replicates may be background. In this assay the parent's reference entry averaged 0.65; its copy inside this library read 4.11 (one replicate of three).